Assay results taken from ChEMBL document CHEMBL2390830 (Eur J Med Chem, 2013).

Protein sequences, listed by entry. Tags and fused reporters are not part of them. Lines headed by an entry give the natural chain unless they say otherwise; changes in a name come on top.
UniProt P43116: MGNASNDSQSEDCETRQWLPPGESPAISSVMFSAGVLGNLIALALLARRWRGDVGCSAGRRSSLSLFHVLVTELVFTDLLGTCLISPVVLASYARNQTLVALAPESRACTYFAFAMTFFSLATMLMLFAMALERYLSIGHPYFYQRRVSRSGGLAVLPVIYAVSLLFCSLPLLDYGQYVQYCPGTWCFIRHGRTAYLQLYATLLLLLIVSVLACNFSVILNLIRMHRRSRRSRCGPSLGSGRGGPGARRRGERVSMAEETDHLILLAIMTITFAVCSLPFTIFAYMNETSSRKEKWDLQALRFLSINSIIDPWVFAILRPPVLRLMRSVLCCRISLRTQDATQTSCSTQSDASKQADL
UniProt P21452, whole entry: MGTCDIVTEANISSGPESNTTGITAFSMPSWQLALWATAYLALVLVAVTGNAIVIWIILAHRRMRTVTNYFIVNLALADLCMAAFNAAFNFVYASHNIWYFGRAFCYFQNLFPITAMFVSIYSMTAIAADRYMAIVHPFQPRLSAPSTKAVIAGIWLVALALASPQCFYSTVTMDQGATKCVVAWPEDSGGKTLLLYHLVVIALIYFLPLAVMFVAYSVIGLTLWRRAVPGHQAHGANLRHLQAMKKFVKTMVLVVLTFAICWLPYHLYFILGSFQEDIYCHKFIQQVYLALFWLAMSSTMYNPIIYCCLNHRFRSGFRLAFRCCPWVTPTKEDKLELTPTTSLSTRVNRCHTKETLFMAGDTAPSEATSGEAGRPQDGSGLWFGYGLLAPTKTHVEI

Key:
[1] = target: Prostaglandin E2 receptor EP2 subtype (Homo sapiens, UniProt P43116); test: Binding affinity to human prostanoid EP2 receptor by radioligand displacement assay
Substance-K receptor = Substance-K receptor (Homo sapiens, UniProt P21452); test: Binding affinity to human NK2 receptor by radioligand displacement assay

| SMILES | IC50 [1] [nM] | Ki [1] [nM] | Ki (Substance-K receptor) [nM] |
| --- | --- | --- | --- |
| CCCCC[C@H](O)/C=C/[C@H]1[C@H](O)CC(=O)[C@@H]1C/C=C\CCCC(=O)O [DINOPROSTONE] | 3.3 | 1.7 | – |
| CCCC[C@H](NC(=O)[C@H](CC(C)C)NC(=O)CNC(=O)[C@@H](NC(=O)[C@H](Cc1ccccc1)NC(=O)[C@H](CO)NC(=O)[C@@H](N)CC(=O)O)C(C)C)C(N)=O | – | – | 5 |
